Data taken from patent US8603980B2, “Glutamate receptor antagonists and methods of use” (The Johns Hopkins University, priority 2007, dated 2013).

How the values were obtained:
[1] = test system: mouse platelets; test: Activation of platelets from WT and GluR1-/- mice (surface P-selectin); format: cell-based; conditions: AMPA 1 mM, thrombin 0.25 U/mL
Description: The functional relevance of platelet AMPAR was explored by isolating platelets from wild-type (WT) and GluR1 subunit knockout mice (GluR1−/−). Platelets from each type of mouse were incubated with vehicle or AMPA (1 mM), and then activated or not with thrombin (0.25 U/mL). Unstimulated platelets from WT and GluR1−/− mice have similar levels of activation, as measured by P-selectin localized to the platelet surface membrane (FIG. 4 D). However, WT platelets stimulated with thrombin have a greater increase in P-selectin externalization than GluR1−/− platelets.
Human platelets were isolated from healthy volunteers who had not taken aspirin or NSAID within 10 d, under a protocol approved by The Johns Hopkins University School of Medicine Institutional Review Board (JCCI). Blood was collected into citrate anticoagulant, platelets were isolated as platelet rich plasma (PRP) by centrifugation at 180 g for 15 min, and then diluted in Tyrode's buffer 1:20 for activation flow cytometry studies. To determine surface GluR1, a Fc Blocking antibody was added to reduce non-specific background antibody binding. Mouse platelets were isolated by collection into heparinized Tyrode's buffer and isolated by centrifugation. Washed platelets were resuspended in Tyrode's. […]

[2] = test system: platelets; test: Intracellular sodium in platelets (SBFI dye, FACS); format: cell-based, human; conditions: AMPA 1 mM; TRAP
Description: Human platelets were isolated from healthy volunteers who had not taken aspirin or NSAID within 10 d, under a protocol approved by The Johns Hopkins University School of Medicine Institutional Review Board (JCCI). Blood was collected into citrate anticoagulant, platelets were isolated as platelet rich plasma (PRP) by centrifugation at 180 g for 15 min, and then diluted in Tyrode's buffer 1:20 for activation flow cytometry studies. To determine surface GluR1, a Fc Blocking antibody was added to reduce non-specific background antibody binding. Mouse platelets were isolated by collection into heparinized Tyrode's buffer and isolated by centrifugation. Washed platelets were resuspended in Tyrode's. Intracellular ion concentrations were performed after incubating platelets diluted 1:20 in Tyrode's buffer with SBFI for 45 minutes prior to experiments.

[3] = test system: AMPA receptor subunits GluR1-4 and kainate receptor subunit GluR5; conditions: cited from earlier work

Structure (SMILES)	thrombin induced activation of GluR1-/- platelets (P-selectin) ([1]; GluR1-/- mice)	thrombin induced activation of WT platelets (P-selectin) ([1]; WT mice)	increase of intracellular Na+ concentration upon activation compared to control [2]	selectivity for GluR1 and 2 over GluR4 (in words) [3]
Cc1onc(O)c1C[C@H](N)C(=O)O [AMPA, alpha(α)-amino-3-hydroxy-5-methyl-4-isoxazolepropionic acid]	but not GluR1−/− platelets	increases activation of WT platelets	approximately two times	
N[C@@H](Cn1nc(I)c(=O)[nH]c1=O)C(=O)O [5-iodo-6-azawillardiine]				reversed
